Earlier results in patent publication US20080081827A1, “Use of a Pyrazole-Derived Compound that is an Antagonist for Cannabinoid CB1 Receptors, for Treating or Preventing Chronic Bronchitis or Chronic Obstructive Bronchopneumopathy” (SANOFI AVENTIS, priority 2004, published 2008).

Sequences of proteins named here, by UniProt entry; tags and fusion partners are left off.
UniProt P47746, whole entry: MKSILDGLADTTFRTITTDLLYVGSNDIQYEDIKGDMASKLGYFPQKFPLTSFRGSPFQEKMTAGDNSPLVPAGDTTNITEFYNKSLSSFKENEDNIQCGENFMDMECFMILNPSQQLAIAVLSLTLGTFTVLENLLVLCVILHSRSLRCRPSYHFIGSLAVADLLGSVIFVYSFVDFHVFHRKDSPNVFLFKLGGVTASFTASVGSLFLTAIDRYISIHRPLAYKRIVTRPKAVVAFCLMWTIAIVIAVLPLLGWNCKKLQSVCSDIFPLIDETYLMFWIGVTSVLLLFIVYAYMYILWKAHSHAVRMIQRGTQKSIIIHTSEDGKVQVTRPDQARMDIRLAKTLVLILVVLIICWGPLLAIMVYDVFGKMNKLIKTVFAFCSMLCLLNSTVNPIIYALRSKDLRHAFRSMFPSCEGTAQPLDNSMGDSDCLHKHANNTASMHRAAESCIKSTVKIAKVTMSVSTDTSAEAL

Biological target: cannabinoid CB1 receptors (Mus musculus, UniProt P47746)
Settings: mouse peritonitis model; cited from earlier work

In the case of `Cc1c(C(=O)NN2CCCCC2)nn(-c2ccc(Cl)cc2Cl)c1-c1ccc(Cl)cc1` [rimonabant, N-piperidino-5-(4-chlorophenyl)-1-(2,4-dichlorophenyl)-4-methylpyrazole-3-carboxamide], the “effect on the anti-inflammatory effect of the cannabinoid agonists HU210 and WIN 55212-2 on neutrophil migration” value is listed as “inhibits the anti-inflammatory effect”.
